Results published in BindingDB's records for doi:10.1097/00001756-199710200-00002 (Cnrs Upr 9023, 1997).

The chains behind the UniProt entries cited, without tags or fusion partners. Where a name states a change or a piece, a line headed by the entry shows the natural chain unless it says otherwise.
UniProt Q13639: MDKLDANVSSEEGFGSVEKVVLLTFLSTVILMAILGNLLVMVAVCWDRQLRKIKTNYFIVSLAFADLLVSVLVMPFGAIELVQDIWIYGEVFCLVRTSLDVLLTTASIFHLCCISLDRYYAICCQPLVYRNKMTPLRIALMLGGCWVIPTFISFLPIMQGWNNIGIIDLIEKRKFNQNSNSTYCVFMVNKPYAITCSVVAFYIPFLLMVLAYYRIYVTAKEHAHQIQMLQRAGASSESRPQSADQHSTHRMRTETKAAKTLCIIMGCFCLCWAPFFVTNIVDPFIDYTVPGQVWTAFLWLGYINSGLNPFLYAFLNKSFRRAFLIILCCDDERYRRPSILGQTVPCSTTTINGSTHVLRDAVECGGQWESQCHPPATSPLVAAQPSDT

Molecular target: 5-hydroxytryptamine receptor 4 (Homo sapiens, UniProt Q13639)

With `COc1cc(N)c(Cl)cc1C(=O)NC1CCN2CCCC1C2` (stereo unspecified) [NSC_3035240] the Ki was 174 nM.
